## Yeast mating assay 2: variants of the scFv Ab-95

Source: Engelhart et al. 2022 (doi:10.1038/s41597-022-01779-4), MIT Lincoln Laboratory and A-Alpha Bio; data file from the FLAb repository.

All variants were tested on one target, the spike HR2 peptide PDVDLGDISGINAS (SARS-CoV-2).

Parent: Ab-95, a human scFv built as VH, three GGGGS repeats, VL. Only the CDRs of the light chain vary.
VH: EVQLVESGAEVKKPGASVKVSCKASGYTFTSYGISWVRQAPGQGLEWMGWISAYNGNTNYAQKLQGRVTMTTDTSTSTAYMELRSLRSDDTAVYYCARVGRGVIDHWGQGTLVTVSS
VL: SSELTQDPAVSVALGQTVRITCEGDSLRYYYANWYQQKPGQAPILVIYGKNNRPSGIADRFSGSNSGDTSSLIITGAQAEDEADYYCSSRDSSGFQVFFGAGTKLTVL

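Library AAYL52 holds single substitutions and randomly drawn double and triple substitutions in the CDRs. Affinity was read by AlphaSeq, a pooled yeast mating assay with surface-displayed partners. Pairs that bind mate more often; barcode pairs of the diploids are counted by sequencing. The ratio of observed to expected reads was calibrated, replicate by replicate, on BCL2-family standards whose Kd was known from biolayer interferometry. The assay was run in three technical replicates.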

Changes read parent residue, position, new residue, counted from the first residue of the VL shown.
All variants listed here change R28 of the VL, counted from its first residue.
The read-out is the apparent dissociation constant on a log10 scale (nM): the lower, the stronger.
A pair that was not seen in that replicate is written "nd"; this usually means weak binding, but a binder can also be missed.

For R28F/Y29I/D91I, the assay gave 3.91, nd, nd. With R28Y/R90F the result was nd, nd, nd. For R28T/Y29K/N52M, the assay gave 2.24, 2.41, 1.99. For R28V/S92W/S93N, the assay gave 5.31, nd, nd. The variant R28D/S92E showed 2.23, 2.30, 1.75. The variant R28G/N33G/S89H gave nd, nd, 4.46. The variant R28H/Y29G/S93Q showed 2.99, 2.75, 2.73. With R28M/Y29K/D91P the result was 1.77, 3.87, 1.91. The variant R28I/K50R/F98H showed 2.77, 3.62, 2.93.

For D25P/R28T, the assay gave 1.77, 1.84, 1.76. With R28H/Y29A/F95E the result was 2.08, 2.36, 1.73. The variant R28E/S93H/G94H showed 4.35, 4.62, 4.33. For R28H/N33I/F98R, the assay gave nd, 4.46, nd. The variant R28P/S93V/F95T showed 2.56, 2.13, 1.94. The variant R28F/N52F/S55F showed 4.11, 2.79, 4.22. The variant R28P/A32M/N52P showed nd, 5.60, 4.22. With R28K/Y29E/K50H the result was 2.06, 2.49, 1.73. The variant R28D/R53H/Q96V gave 3.11, 4.27, nd.

With R28N/Y29F/F95M the result was 2.29, 2.33, 2.96. The variant R28F/A32Y showed 3.48, 2.70, 3.02. For R28H/Y31D/S93M, the assay gave 1.69, 1.60, 1.09. The variant R28Y/K50E/D91C showed 3.84, nd, nd. The variant R28H gave 2.22, 2.56, 1.89. The variant R28S/D91T/G94Y gave 4.21, 3.43, nd. The variant R28H/N52G/G94H gave 5.23, 4.31, 4.01. For R28W/K50H/S88F, the assay gave 3.79, 3.60, 2.83. For R28E/S88T/F95A, the assay gave 2.80, 2.12, 1.76.

With R28W/Y29D/K50I the result was 2.68, 2.79, 2.97. The variant R28N/N33T/S88L showed nd, nd, nd. For R28T/G94E/F95I, the assay gave nd, 3.45, 2.72. The variant R28L/Q96S gave 2.76, 2.19, 2.20. The variant L27N/R28K/K50V showed 3.24, 5.44, nd. With R28E/S55Q/F98R the result was 2.12, 2.16, 1.26. The variant S26L/R28A/A32I gave 3.05, 2.52, 1.53. The variant S26D/R28W/D91R showed nd, nd, nd. For R28P/G49V, the assay gave nd, 4.83, nd.

The variant R28K/K50H/S89E gave nd, nd, nd. With L27A/R28G/N51K the result was nd, 5.23, nd.

The first 4 variants above that were never detected:

| changes | log10 Kd, replicates |
|---|---|
| R28Y/R90F | nd, nd, nd |
| R28N/N33T/S88L | nd, nd, nd |
| S26D/R28W/D91R | nd, nd, nd |
| R28K/K50H/S89E | nd, nd, nd |

For reference, the parent read 2.31 as the reference entry and 2.25 as a member of this library.
Empty control strains, which show no peptide, gave a signal in 28% of pairings with library AAYL52; the median was 3.91 and 95% of these signals were weaker than 2.90. No background was subtracted.